Data: patent US5648458A, “Peptides and compounds that bind to ELAM-1” (Affymax Technologies N.V., priority 1995, dated 1997)

Target: T1, immobilized ELAM-1 (Homo sapiens, UniProt P16581)
T1 construct: truncated form comprising the complete extracellular domain (amino acids 1 through 554); made in house
T1 sequence (P16581 22-554): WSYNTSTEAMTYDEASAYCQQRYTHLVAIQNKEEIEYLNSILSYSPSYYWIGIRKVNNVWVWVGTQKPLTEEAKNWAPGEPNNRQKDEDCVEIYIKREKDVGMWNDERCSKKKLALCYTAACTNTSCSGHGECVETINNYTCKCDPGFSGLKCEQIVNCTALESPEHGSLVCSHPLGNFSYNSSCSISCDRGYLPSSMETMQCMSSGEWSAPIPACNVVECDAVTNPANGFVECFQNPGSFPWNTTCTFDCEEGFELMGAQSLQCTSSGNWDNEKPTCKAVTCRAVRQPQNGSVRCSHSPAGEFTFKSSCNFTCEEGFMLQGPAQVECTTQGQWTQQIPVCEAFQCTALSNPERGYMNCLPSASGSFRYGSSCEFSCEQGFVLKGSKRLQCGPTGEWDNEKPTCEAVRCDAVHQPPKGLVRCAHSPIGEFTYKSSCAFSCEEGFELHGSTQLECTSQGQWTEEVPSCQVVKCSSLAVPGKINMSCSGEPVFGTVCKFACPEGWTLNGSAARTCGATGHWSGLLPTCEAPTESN
Assay type: cell-based
Conditions: compound at about 200 μM; FIG. 1
Procedure: By comparing test wells with control wells (no receptor), one can determine whether a peptide binds to ELAM-1 specifically. Peptides found to bind specifically to ELAM-1 were then synthesized as the free peptide (no phage) and tested in an HL60 cell adhesion competition assay. The competition assay was carried out similarly to the ELISA, except that labeled HL60 cells were added in addition to the peptide (the control wells were typically of at least two types: (1) no immobilized ELAM-1; and (2) no peptide; see the Examples). Peptides that block the binding of labeled HL60 cells to ELAM-1 are preferred compounds of the invention. […] The assay requires HL60 cells labeled with tritiated thymidine. […] The cells are then placed in a T75 flask and incubated at 37° C. for 24 hours. The cells are then collected by centrifugation, washed twice with RPMI/HEPES/0.1% FCS, and resuspended in the same solution at a concentration of about one to two million cells per mL. About 100 μL of this cell preparation are used per well of a 96-well microtiter dish in the assay. […] After this incubation, aliquots were removed from each well and placed in scintillation vials; scintillation fluid was added to each vial; and the radioactivity in each aliquot was quantitated by LS counting. […]

blocking of HL60 cell binding, relative to binding in the absence of added compound: did not exhibit significant blocking
Substance: monofucosyl monosialyllactose [SLe^x]
